Test results reported in patent US6673937B2, “Syntheses and methods of use of new antimitotic agents” (The University of Pittsburgh, priority 2000, dated 2004).

Chains of the proteins cited; added tags and fusions are not shown. Residues count along the entry.
UniProt Q16881, 151-649: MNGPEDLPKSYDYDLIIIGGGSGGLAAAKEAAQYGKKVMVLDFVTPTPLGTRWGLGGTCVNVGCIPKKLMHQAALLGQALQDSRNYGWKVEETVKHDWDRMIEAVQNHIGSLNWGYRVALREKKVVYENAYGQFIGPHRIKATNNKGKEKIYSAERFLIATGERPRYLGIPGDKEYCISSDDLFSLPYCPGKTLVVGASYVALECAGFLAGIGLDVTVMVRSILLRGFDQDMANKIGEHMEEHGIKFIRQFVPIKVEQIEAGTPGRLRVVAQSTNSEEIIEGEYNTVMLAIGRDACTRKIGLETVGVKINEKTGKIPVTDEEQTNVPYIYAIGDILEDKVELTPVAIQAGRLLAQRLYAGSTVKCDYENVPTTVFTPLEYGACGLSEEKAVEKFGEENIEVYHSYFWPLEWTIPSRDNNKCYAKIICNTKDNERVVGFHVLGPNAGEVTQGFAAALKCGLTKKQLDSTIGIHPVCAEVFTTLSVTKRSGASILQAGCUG
UniProt P10599, whole entry: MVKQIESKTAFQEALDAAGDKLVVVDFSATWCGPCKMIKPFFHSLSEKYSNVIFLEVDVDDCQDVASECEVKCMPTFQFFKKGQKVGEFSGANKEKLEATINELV

Key:
[1] = tested on: MCF-7 cells; conditions: read-out: MCF-7 50% cell growth inhibition; 72 hours
[2] = molecular target: TrxR (Homo sapiens, UniProt Q16881); assay: Thioredoxin reductase (TrxR) DTNB reduction assay; conditions: read-out: TrxR IC50; calculated from 5 concentrations (0.1 to 50 μM)
[3] = molecular target: Trx-1/TrxR (Homo sapiens, UniProt P10599+Q16881); assay: Trx-1/TrxR-dependent insulin reducing assay; conditions: read-out: Trx-1/TrxR IC50; calculated from 5 concentrations (0.1 to 50 μM)
[4] = tested on: MDA-MB-231 cells; assay: Antiproliferative assay, MDA-MB-231 cells; conditions: 72 hours
[5] = tested on: mouse embryonic fibroblasts transformed with SV40 large T antigen; assay: Proliferation of SV40 transformed mouse embryonic fibroblasts; conditions: read-out: concentration required to inhibit growth by 50%; data not shown

SMILES	IC50 [1] [µM]	IC50 [2] [µM]	other results
O=C1C=CC2(Oc3cccc4cccc(c34)O2)c2cccc(OCc3ccc(-c4ccccc4Cl)o3)c21	> 10	> 50	–
O=C1C=CC2(Oc3cccc4cccc(c34)O2)c2cccc(OCc3ccc(Cl)cc3)c21	> 10	> 50	–
O=C1C2OC2C2(Oc3cccc4cccc(c34)O2)C23OC12C(O)C=CC3=O (centres unmarked)	1.5	13.5	IC50 [3]: 4.5 µM; sensitivity of MDA-MB-231 cells, in words ([4]; FIG. 23 Panel B): equally sensitive; IC50 ([4]; read-out: MDA-MB-231 50% cell growth inhibition): 2 µM; IC50 [5]: 3 µM
O=C1C=CC2(Oc3cccc4cccc(c34)O2)c2cccc(OCc3ccc(-c4cccc(C(F)(F)F)c4)o3)c21	–	> 50	–
C=C(C)COc1cccc2c1C(=O)C=CC21Oc2cccc3cccc(c23)O1	–	> 50	–
CC(C)=CCOc1cccc2c1C(=O)C=CC21Oc2cccc3cccc(c23)O1	2	–	–
C#CCOc1cccc2c1C(=O)C=CC21Oc2cccc3cccc(c23)O1	–	> 50	–
O=C1C=CC2(Oc3cccc4cccc(c34)O2)c2cccc(OCc3ccc(-c4cccc(Cl)c4)o3)c21	> 10	> 50	–
O=C1C=CC2(Oc3cccc4cccc(c34)O2)c2cccc(OCc3ccc(Br)cc3)c21	> 10	> 50	–
O=C1C=CC2(Oc3cccc4cccc(c34)O2)c2cccc(OCc3ccc(-c4ccccc4C(F)(F)F)o3)c21	5	> 50	–
